Assay results from ChEMBL document CHEMBL1148435, “N,N-dialkyl-4-[(8-azabicyclo[3.2.1]-oct-3-ylidene)phenylmethyl]benzamides, potent, selective delta opioid agonists” (Bioorg Med Chem Lett, 2004).

Assays:
[1] = biological target: Mu-type opioid receptor (Homo sapiens, UniProt P35372); assay: Binding affinity for mu opioid receptor
[2] = biological target: T1, Delta-type opioid receptor (Homo sapiens, UniProt P41143); assay: Effective concentration against stimulation of [35S]GTP-gamma-S, binding in CHO cells transfected with the human opioid receptor delta 1
[3] = biological target: T1, Delta-type opioid receptor; assay: Binding affinity for delta opioid receptor

CCN(CC)C(=O)c1ccc(N(c2ccccc2)C2CCNCC2)cc1
Ki [1]: > 10 µM
EC50 [2]: 458 nM
Ki [3]: 35 nM
